Consider one compound from ChEMBL document CHEMBL1137857, “Design and synthesis of substituted N-methylbenzamide analogues derived from SR 48,968 as neurokinin-2 receptor antagonists” (Bioorg Med Chem Lett, 2004).

Chains of the proteins cited; added tags and fusions are not shown.
UniProt Q64077, whole entry: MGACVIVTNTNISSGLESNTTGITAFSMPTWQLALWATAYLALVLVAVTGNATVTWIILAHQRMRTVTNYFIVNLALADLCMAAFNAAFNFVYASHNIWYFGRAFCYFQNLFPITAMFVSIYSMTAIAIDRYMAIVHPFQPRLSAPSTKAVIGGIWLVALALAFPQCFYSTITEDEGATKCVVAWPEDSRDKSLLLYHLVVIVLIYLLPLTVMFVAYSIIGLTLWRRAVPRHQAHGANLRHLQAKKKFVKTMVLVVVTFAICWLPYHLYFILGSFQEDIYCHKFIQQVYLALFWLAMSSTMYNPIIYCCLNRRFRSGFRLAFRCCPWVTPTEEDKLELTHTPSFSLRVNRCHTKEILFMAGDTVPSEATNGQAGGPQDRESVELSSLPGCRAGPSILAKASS

The target in the experiment is Substance-K receptor (Cavia porcellus) (UniProt Q64077). Kind of experiment: Antagonistic activity against Tachykinin receptor 2 binding to [b-Ala8] NKA(4-10) in isolated guinea pig trachea.

In the case of `CN(C[C@H](CCN1CCC(O)(c2ccccc2)CC1)c1ccc(Cl)c(Cl)c1)C(=O)c1ccccc1`, the pKb (in general, the negative decadic logarithm of the Kb, by convention in mol/L) was found to be 9.5.
